The test system of experiment [1] is male albino rats (Sprague Dawley). The conditions noted are these: alone, 0.00464 mg/kg i.v., n = 10, Mean SEM.
Experiment [2] relates to rat. The conditions noted are these: applied alone.

These results are taken from US11311504B2 (priority 2012, dated 2022).

Molecules are shown by their SMILES. Several values for one entry are separate records, joined by “and”; a condition that tells them apart may be missing. Equal values may be shown once. Read-outs that look alike come from different tables or passages of the source.

In the case of `CN(C)[C@]1(c2ccccc2)CC[C@]2(CC1)OCCc1c3cc(F)ccc3[nH]c12`, the figures for the “% MPE (Maximum possible effect)” value in experiment [1] (30 min. post administration), in experiment [1] (60 min. post administration) and in experiment [1] (90 min. post administration) were 12.2 ± 2.69 % MPE, 10.6 ± 3.51 % MPE and 2.88 ± 2.27 % MPE, respectively. Moreover, the “timepoint of peak effect” value in experiment [2] was 15 min p. appl. Besides, the “ED50 (95% CI)” value in experiment [2] (i.v., 15 min p. appl. (peak effect)) is 3.364 (2.896-3.815) μg/kg and 3.36 μg/kg.
